Source: ChEMBL document CHEMBL1130012 (J Med Chem, 1997)

Sequences of proteins named here, by UniProt entry; tags and fusion partners are left off.
UniProt P10980, whole entry: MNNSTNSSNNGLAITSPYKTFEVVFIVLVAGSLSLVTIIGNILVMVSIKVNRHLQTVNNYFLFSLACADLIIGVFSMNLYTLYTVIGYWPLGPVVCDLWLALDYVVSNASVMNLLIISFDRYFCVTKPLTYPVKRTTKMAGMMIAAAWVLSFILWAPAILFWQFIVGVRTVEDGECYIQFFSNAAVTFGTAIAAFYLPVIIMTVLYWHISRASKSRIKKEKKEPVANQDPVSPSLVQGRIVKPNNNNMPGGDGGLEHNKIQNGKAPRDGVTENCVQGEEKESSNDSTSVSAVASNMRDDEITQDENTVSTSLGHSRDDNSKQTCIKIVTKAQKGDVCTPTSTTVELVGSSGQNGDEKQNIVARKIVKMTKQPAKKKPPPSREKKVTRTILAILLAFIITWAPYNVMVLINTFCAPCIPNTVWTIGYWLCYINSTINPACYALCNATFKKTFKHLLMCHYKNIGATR

Target: Muscarinic acetylcholine receptor M2 (Rattus norvegicus, UniProt P10980)
Assay: Binding affinity towards rat Muscarinic acetylcholine receptor M2 was determined

`CN1[C@@H]2C[C@@H](OC(=O)[C@H](CO)c3ccccc3)C[C@H]1[C@@H]1O[C@@H]12` [SCOPOLAMINE] gave a Ki of 4.57 nM.
